Source: ChEMBL document CHEMBL1124535, “Highly selective kappa-opioid analgesics. 2. Synthesis and structure-activity relationships of novel N-[(2-aminocyclohexyl)aryl]acetamide derivatives” (1989)

Sequences of proteins named here, by UniProt entry; tags and fusion partners are left off.
UniProt P35372, whole entry, looked up: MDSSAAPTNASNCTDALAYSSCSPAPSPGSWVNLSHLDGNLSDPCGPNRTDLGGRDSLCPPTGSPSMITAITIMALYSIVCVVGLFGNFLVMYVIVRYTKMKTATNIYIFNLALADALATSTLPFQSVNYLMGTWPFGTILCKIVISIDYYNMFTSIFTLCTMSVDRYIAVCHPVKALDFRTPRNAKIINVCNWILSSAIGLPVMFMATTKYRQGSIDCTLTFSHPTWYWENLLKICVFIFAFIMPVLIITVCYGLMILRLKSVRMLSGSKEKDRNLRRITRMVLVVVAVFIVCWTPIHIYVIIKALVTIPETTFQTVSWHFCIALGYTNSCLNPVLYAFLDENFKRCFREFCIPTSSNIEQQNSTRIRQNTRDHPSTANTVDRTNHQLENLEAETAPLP

Target: Mu-type opioid receptor (Homo sapiens) (UniProt P35372)
Test: Ratio of binding affinity towards opioid receptor mu to that of opioid receptor kappa

| Compound | Ratio |
| --- | --- |
| O=C(Cc1cccc2sccc12)NCCN1CCCC1 | 0.4 |
| CN(C(=O)Cc1cccc2[nH]ccc12)[C@@H]1CCCC[C@H]1N1CCCC1 | 1 |
| CN(C(=O)Cc1ccc2ccsc2c1)[C@@H]1CCCC[C@H]1N1CCCC1 | 3 |
| CN(CCc1cccc2sccc12)[C@@H]1CCCC[C@H]1N1CCCC1 | 20 |
| O=C(Cc1cccc2sccc12)O[C@@H]1CCCC[C@H]1N1CCCC1 | 13 |
| CN(C(=O)Cc1ccc2sccc2c1)[C@@H]1CCCC[C@H]1N1CCCC1 | 5 |
| CN(C(=O)Cc1cccc2sccc12)[C@@H]1CCCC[C@H]1N1CCC(CO)C1 (some centres not stated) | 80 |
| CN(C(=O)Cc1cccc2ccsc12)[C@@H]1CCCC[C@H]1N1CCCC1 | 39 |
| CN(C(=O)Cc1cccc2occc12)[C@@H]1CCCC[C@H]1N1CCC(COC(=O)CCC(=O)OCC2CCN([C@H]3CCCC[C@@H]3N(C)C(=O)Cc3cccc4occc34)C2)C1 (some centres not stated) | 4.4 |
| CO[C@H]1C[C@H](N(C)C(=O)Cc2cccc3sccc23)[C@@H](N2CCCC2)C[C@H]1OC | 155 |
| CN(C(=O)Cc1cccc2occc12)[C@@H]1CCCC[C@H]1N1CCC(COC(=O)CCCC(=O)OCC2CCN([C@H]3CCCC[C@@H]3N(C)C(=O)Cc3cccc4occc34)C2)C1 (some centres not stated) | 4.2 |
| CN(C(=O)Cc1cccc2sccc12)[C@@H]1CCCC[C@H]1N1CCCC1 | 110 |
| CN(C(=O)Cc1cccc2sccc12)[C@@H]1CCC[C@H]1N1CCCC1 | 23 |
| CCCCCN(CCN1CCCC1)C(=O)Cc1cccc2sccc12 | 2.7 |

Target: Mu-type opioid receptor (Homo sapiens) (UniProt P35372)
Test: Ratio of binding affinity towards mu opioid receptor to that of kappa opioid receptor

| Compound | Ratio |
| --- | --- |
| CN(C(=O)Cc1cccc2sccc12)[C@@H]1CCCCC[C@H]1N1CCCC1 | 83 |
| CO[C@H]1C[C@H](N(C)C(=O)Cc2cccc3occc23)[C@@H](N2CCCC2)C[C@H]1OC | 51 |
| CN(C(=S)Cc1cccc2sccc12)[C@@H]1CCCC[C@H]1N1CCCC1 | 13 |
| O=C(Cc1cccc2sccc12)N1CC2CCCN2[C@@H]2CCCC[C@H]21 (some centres not stated) | 0.63 |
| CN(Cc1cccc2occc12)C(=O)[C@@H]1CCCC[C@H]1N1CCCC1 | 0.55 |
| CN(C(=O)Cc1cccc2occc12)[C@@H]1CCCC[C@H]1N1CCC(CO)C1 (some centres not stated) | 244 |
| O=C(Cc1cccc2sccc12)N[C@@H]1CCCC[C@H]1N1CCCC1 | 14 |

Target: Mu-type opioid receptor (Homo sapiens) (UniProt P35372)
Test: Ratio of binding affinity towards Opioid receptor mu 1 to that of kappa opioid receptor

| Compound | Ratio |
| --- | --- |
| CN(C(=O)Cc1csc2ccccc12)[C@@H]1CCCC[C@H]1N1CCCC1 | 3.3 |
